In this experiment the target is Tubulin (Bos taurus, UniProt Q6B856+Q862L2+Q862F3). Description: Drug concentration needed to produce a 50% reduction of bovine brain tubulin polymerization relative to the control. In a few lines: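 Bovine brain tubulin, purified in MEM buffer (1 mM EGTA, 1 mM MgSO4, 5 mM NaH2PO4, 0.02% NaN3, pH 6.75) through one polymerization–depolymerization cycle and stored at -80 °C. Tubulin (200 µg protein) was polymerized in MEM buffer with 1 mM GTP for 15 min at 37 °C. Assembly was followed as turbidity at 350 nm in a temperature-controlled spectrophotometer.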

Chains of the proteins cited; added tags and fusions are not shown. Lines headed by an entry give the natural chain unless they say otherwise; changes in a name come on top.
UniProt Q6B856: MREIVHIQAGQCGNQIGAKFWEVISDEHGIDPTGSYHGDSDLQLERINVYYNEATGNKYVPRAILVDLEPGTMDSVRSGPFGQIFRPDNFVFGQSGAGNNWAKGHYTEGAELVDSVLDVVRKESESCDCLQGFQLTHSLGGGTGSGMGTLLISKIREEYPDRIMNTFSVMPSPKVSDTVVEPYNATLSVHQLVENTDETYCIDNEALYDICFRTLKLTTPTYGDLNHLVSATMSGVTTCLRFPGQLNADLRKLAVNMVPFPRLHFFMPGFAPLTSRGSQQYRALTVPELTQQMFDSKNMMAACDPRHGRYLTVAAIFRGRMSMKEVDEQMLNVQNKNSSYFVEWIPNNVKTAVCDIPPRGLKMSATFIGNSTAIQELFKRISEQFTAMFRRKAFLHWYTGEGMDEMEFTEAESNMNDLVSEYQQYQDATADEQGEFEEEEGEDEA

The values that follow come from ChEMBL document CHEMBL1127046, “Antitumor agents. 3. Synthesis and biological activity of 4 beta-alkyl derivatives containing hydroxy, amino, and amido groups of 4'-O-demethyl-4-desoxypodophyllotoxin as antitumor agents” (J Med Chem, 1993).

In general, IC50 refers to the concentration that gives 50% inhibition. A lower IC50 goes with greater potency in that assay.

SMILES strings stand for the structures.

Turning to `COc1cc([C@@H]2c3cc4c(cc3[C@@H](O[C@@H]3O[C@@H]5CO[C@@H](C)O[C@H]5[C@H](O)[C@H]3O)[C@H]3COC(=O)[C@H]23)OCO4)cc(OC)c1O` [ETOPOSIDE], the IC50 was more than 60 µM.
